Target: Acetylcholinesterase (Electrophorus electricus, UniProt O42275)
Assay: Enzyme Inhibition Assay
Details: pH 8; 22 °C
Protocol: The cholinesterase assays were performed using colorimetric method reported by Ellman. […] Each inhibitor was evaluated at several concentrations in the range from 1 nM to 20 uM.

Chains of the proteins cited; added tags and fusions are not shown. Lines headed by an entry give the natural chain unless they say otherwise; changes in a name come on top.
UniProt O42275: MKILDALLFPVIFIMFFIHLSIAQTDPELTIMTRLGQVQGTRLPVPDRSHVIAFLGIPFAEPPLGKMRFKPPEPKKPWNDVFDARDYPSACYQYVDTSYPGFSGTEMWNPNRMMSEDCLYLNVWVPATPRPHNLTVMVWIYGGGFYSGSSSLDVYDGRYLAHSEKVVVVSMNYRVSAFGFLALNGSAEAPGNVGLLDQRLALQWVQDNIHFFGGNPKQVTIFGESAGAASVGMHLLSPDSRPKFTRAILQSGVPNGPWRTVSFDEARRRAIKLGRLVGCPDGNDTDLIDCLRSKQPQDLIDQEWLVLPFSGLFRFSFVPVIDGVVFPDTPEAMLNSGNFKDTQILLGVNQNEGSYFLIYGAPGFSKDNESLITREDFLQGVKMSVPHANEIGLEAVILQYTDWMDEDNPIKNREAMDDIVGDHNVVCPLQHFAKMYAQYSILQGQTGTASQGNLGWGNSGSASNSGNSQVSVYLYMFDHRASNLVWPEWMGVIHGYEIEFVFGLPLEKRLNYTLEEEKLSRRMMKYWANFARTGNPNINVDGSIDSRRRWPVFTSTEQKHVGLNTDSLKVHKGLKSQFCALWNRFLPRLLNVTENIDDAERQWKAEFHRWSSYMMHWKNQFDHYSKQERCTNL

Q: With `COc1ccc2c3c1O[C@H]1C[C@@H](O)C=C[C@@]31CC[N+](CCCCCCCCN1C(=O)c3ccccc3C1=O)=C2` [(1S,12S,14R)-4-[8-(1,3-dioxo-2,3-dihydro-1H-isoindol-2-yl)octyl]-14-hydroxy-9-methoxy-11-oxa-4-azatetracyclo[8.6.1.0^{1,12}.0^{6,17}]heptadeca-4,6,8,10(17),15-pentaen-4-ium] as the compound, how does the IC50 read?
A: 11 nM

Source: BindingDB's records for doi:10.1021/ja0466154 (Weizmann Institute of Science, 2004)
